Target: T1, Dihydrofolate reductase (Rattus norvegicus, UniProt Q920D2)
T1 sequence (Q920D2 whole entry): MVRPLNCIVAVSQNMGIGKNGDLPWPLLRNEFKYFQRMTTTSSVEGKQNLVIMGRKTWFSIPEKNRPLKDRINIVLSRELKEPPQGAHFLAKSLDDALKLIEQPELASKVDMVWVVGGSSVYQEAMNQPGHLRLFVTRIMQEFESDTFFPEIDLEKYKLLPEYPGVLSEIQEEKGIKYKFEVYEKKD

IC50: 19 µM
SMILES: COc1cc(CCCNc2ccc3nc(N)nc(N)c3c2Cl)cc(OC)c1OC

— ChEMBL document CHEMBL1127704 (J Med Chem, 1994)
